By UniProt entry, the sequences of proteins in these tests, tags left out.
UniProt O75874, whole entry R132H: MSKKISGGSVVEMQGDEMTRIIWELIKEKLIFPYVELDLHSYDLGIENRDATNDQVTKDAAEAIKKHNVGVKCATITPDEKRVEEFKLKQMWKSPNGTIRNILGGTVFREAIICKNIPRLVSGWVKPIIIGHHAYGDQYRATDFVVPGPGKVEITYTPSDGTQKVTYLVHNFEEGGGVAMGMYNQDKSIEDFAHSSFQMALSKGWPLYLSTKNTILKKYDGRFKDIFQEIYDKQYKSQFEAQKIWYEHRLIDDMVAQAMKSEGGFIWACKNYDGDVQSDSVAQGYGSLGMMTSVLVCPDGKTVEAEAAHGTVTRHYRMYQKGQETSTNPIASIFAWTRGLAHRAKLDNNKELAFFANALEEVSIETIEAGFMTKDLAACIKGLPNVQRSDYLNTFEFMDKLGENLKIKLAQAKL

According to patent publication US10442819B2, “Tricyclic compounds as inhibitors of mutant IDH enzymes” (Merck Sharp & Dohme Corp., priority 2014, dated 2019):

Target: R132H mutant IDH1 enzyme (Homo sapiens (Human), UniProt O75874, R132H)
Assay: R132H IDH1 Enzymatic Assay
Assay type: biochemical
Conditions: R132H mutant IDH1 enzyme 1.5 nM final; luminescence readout; read-out: IC50

| SMILES | IC50 [µM] |
| --- | --- |
| CO[C@H]1CC[C@@H](C(=O)N2Cc3cccnc3Nc3ccc(N4CCOCC4)cc32)CC1 [Example 53, 6-[(Cis-4-methoxycyclohexyl)carbonyl]-8-morpholin-4-yl-6,11-dihydro-5H-pyrido[2,3-b][1,5]benzodiazepine] | 0.771 |
| CC(C)(C)C1CC(C(=O)N2Cc3cccnc3Nc3ccccc32)C1 (stereo not drawn) [Example 54, 6-[(3-tert-butylcyclobutyl)carbonyl]-6,11-dihydro-5H-pyrido[2,3-b][1,5]benzodiazepine] | 0.562 |
| O=C(C1CC(Oc2ccccc2)C1)N1Cc2cccnc2Nc2ccccc21 (stereo not drawn) [Example 55, 6-[(3-phenoxycyclobutyl)car-bonyl]-6,11-dihydro-5H-pyrido[2,3-b][1,5]benzodiazepine] | 0.286 |
| CC(C)C1CC(C(=O)N2Cc3cccnc3Nc3ccccc32)C1 (stereo not drawn) [Example 56, 6-{[3-(1-methylethyl)cyclobutyl]carbonyl}-6,11-dihydro-5H-pyrido[2,3-b][1,5]benzodiazepine] | 0.492 |
| CC1(C)CC(C(=O)N2Cc3cccnc3Nc3ccc(Br)cc32)C1 [Example 57, 8-bromo-6-[(3,3-dimethylcyclobutyl)car-bonyl]-6,11-dihydro-5H-pyrido[2,3-b][1,5]benzodiazepine] | 0.337 |
| C[C@H]1CC[C@H](C(=O)N2Cc3cccnc3Nc3ccccc32)CC1 [Example 58, 6-[(trans-4-methylcyclohexyl)carbon-yl]-6,11-dihydro-5H-pyrido[2,3-b][1,5]benzodiazepine] | 0.458 |
| CC1CCCC(C(=O)N2Cc3cccnc3Nc3ccccc32)C1 (stereo not drawn) [Example 59, 6-[(3-methylcyclohexyl)carbon-yl]-6,11-dihydro-5H-pyrido[2,3-b][1,5]benzodiazepine] | 0.931 |
| CCC[C@H]1CC[C@H](C(=O)N2Cc3cccnc3Nc3ccccc32)CC1 [Example 60, 6-[(trans-4-propylcyclohexyl)carbon-yl]-6,11-dihydro-5H-pyrido[2,3-b][1,5]benzodiazepine] | 0.07 |
| CC(C)(C)[C@H]1CC[C@@H](C(=O)N2Cc3cccnc3Nc3ccccc32)CC1 [Example 61, 6-[(cis-4-tert-butylcyclohexyl)carbon-yl]-6,11-dihydro-5H-pyrido[2,3-b][1,5]benzodiazepine] | 0.595 |
| CC[C@H]1CC[C@H](C(=O)N2Cc3cccnc3Nc3ccccc32)CC1 [Example 62, 6-[(trans-4-ethylcyclohexyl)carbonyl]-6,11-dihydro-5H-pyrido[2,3-b][1,5]benzodiazepine] | 0.112 |
| CCO[C@H]1CC[C@H](C(=O)N2Cc3cccnc3Nc3ccc(N4CCOCC4)cc32)C1 [Example 63, 6-{[(1S,3S)-3-ethoxycyclopentyl]carbon-yl}-8-morpholin-4-yl-6,11-dihydro-5H-pyrido[2,3-b][1,5]benzodiazepine] | 0.487 |
| CC(C)O[C@@H]1CC[C@@H](C(=O)N2Cc3cccnc3Nc3ccc(N4CCOCC4)cc32)C1 [Example 64, 6-{[(1R,3R)-3-(1-methylethoxy)cyclopent-yl]carbonyl}-8-morpholin-4-yl-6,11-dihydro-5H-pyrido[2,3-b][1,5]benzodiazepine] | 0.154 |
| CCO[C@@H]1CC[C@H](C(=O)N2Cc3cccnc3Nc3ccc(N4CCOCC4)cc32)C1 [Example 65, 6-{[(1S,3R)-3-ethoxycyclopentyl]carbon-yl}-8-morpholin-4-yl-6,11-dihydro-5H-pyrido[2,3-b][1,5]benzodiazepine] | 0.346 |
| CC(C)O[C@@H]1CC[C@H](C(=O)N2Cc3cccnc3Nc3ccc(N4CCOCC4)cc32)C1 [Example 66, 6-{[(1S,3R)-3-(1-methylethoxy)cyclopent-yl]carbonyl}-8-morpholin-4-yl-6,11-dihydro-5H-pyrido[2,3-b][1,5]benzodiazepine] | 0.113 |
| O=C([C@H]1CC[C@H](C(F)(F)F)CC1)N1Cc2cccnc2Nc2ccccc21 [Example 67, 6-{[trans-4-(trifluoromethyl)cyclohex-yl]carbonyl}-6,11-dihydro-5H-pyrido[2,3-b][1,5]benzodiazepine] | 0.354 |
